Literature values as cited in article PMC3196243.

Target: PEP-19 IQ motif (Homo sapiens) (UniProt P48539)
Settings: cited from earlier work

Calmodulin (from UniProt P0DP23)
pKd: 4.89

pKd: −log10 of the molar value.
